These results are taken from US5965524A, “Analogs of viscosin and uses thereof” (Peptide Technologies Corporation, priority 1994, dated 1999).

A short description of series [1]: Cell toxicity in the HSV-2 assay. To be noted: host cells of the HSV-2 assay. An excerpt:
(Davis, B., Chapter 55 in Microbiology, Including Immunology and Molecular Genetics, 3rd Ed., Harper & Row, Philadelphia (1980), p. 1064). Particularly preferred host cells are rabbit skin cells or Vero cells. (Grammer, S., et al., J. Immunol. 145:2249-2253 (1990); Gao, W., et al., J. Biol. Chem. 265:20172-20178 (1990)). […] (See, e.g., Groupe, V., et al., Proc. Soc. Exptl. Biol. Med. 78:354-358 (1951); Mitsuya, H., et al., Science 226:172-174 (1984)). Acyclovir, a known antiherpesviral agent (Douglas, R., Chapter 51 in Goodman and Gilman's the Pharmacological Basis of Therapeutics, 8th Ed., G. Gilman et al., eds., Pergamon Press, New York (1980)), was used as a positive control.

For series [2] the following is noted: footnote 2 of Table I.

On to Deshydroxy Viscosin [Compound 3], for which the “Cell Toxicity” value in series [1] came out at 100 µg/mL. With Octadecanoyl Viscosin [Compound 4], the “Cell Toxicity” value in series [1] was over 100 µg/mL. The Solubility in water entry in series [2] is recorded as “Insoluble in water”.
